Assay results as given in PubChem BioAssay AID720706 (Broad Institute, 2013).
Only a part is listed here, and it is no random draw. Active and inactive are the calls of the source.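 The calls were made as follows: active = significant combined selectivity score with lowered wild-type GFP, culture density cut under 30%, mutant RFP and density less affected; inactive = any of these conditions unmet.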

Experiment: reduced GFP signal of wild-type E. coli, primary screen, bacterial rRNA inhibitor project, GFP/RFP fluorescence, OD600, single point (AID 720706)
Settings: E. coli WT GFP vs humanized-ribosome RFP mutants, 24 h, hits give low values, DMSO median 0, no signal -100
For `CCC(=O)N(c1ccccc1)C1(COC)CCN(CCc2cccs2)CC1`, the GFP signal change (wild-type ribosome) was inactive: -0.05%. For `CCC(=O)N(c1ccccc1)C1(COC)CCN(CCn2nnn(CC)c2=O)CC1`, the GFP signal change (wild-type ribosome) was inactive: 2.08%.
